Consider three compounds from patent US8426447B2, “Spiro-tricyclic ring compounds as beta-secretase modulators and methods of use” (Amgen Inc., priority 2008, dated 2013).

Amino acid sequences for entries named in this document (tags omitted). Residues count along the entry.
UniProt P56817, 46-501 limits assumed: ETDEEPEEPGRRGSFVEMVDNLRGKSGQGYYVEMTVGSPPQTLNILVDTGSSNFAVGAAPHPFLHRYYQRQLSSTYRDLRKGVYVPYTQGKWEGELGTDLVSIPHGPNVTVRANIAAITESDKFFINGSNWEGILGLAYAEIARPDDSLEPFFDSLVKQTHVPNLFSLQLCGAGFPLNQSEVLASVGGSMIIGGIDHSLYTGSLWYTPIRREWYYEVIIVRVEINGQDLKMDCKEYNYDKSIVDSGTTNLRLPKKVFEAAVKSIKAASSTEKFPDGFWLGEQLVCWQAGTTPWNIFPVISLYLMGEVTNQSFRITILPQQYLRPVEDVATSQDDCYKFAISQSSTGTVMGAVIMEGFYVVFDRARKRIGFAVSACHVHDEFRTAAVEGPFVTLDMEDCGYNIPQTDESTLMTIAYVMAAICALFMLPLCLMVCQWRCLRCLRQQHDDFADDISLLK

Assay [1] addresses T1, BACE1 (Homo sapiens, UniProt P56817). Kind of assay: In Vitro Enzymatic BACE FRET (Fluorescence Resonance Energy Transfer) Assay. In kind it is biochemical. The conditions noted are these: read-out: BACE1 FRET assay.
In assay [2] the target is T1, BACE1. Kind of assay: In Vitro BACE Cell-based Assay (HEK cell assay): Aβ40 in conditioned medium of cells stably expressing Amyloid Precursor Protein, sandwich ELISA. The conditions noted are these: read-out: HEK cell assay.

Take `CN(C)CC#Cc1ccc2c(c1)[C@]1(COC(N)=N1)c1cc(-c3cncnc3)ccc1O2`: the IC50 on BACE1 [1] (Table III, IC50's in uM ranges) is 0.1 to 1 µM; at BACE1 [2] (Table III, IC50's in uM ranges), under 0.1 µM.

Consider `NC1=N[C@]2(CO1)c1ccccc1Oc1ccc(C(=O)NCC3CCCCC3)cc12`, for which the IC50 at BACE1 [1] (Table IV, class symbols) is over 5 µM; on BACE1 [2] (Table IV, class symbols), over 5 µM.

With `NC1=N[C@]2(CO1)c1cc(NC3CCOCC3)ccc1Oc1ccc(-c3cncnc3)cc12`, the IC50 at BACE1 [1] and on BACE1 [2] was 0.1 to 1 µM in each case.
